Measurements: patent publication US7338959B2, “Diamino-pyrimidines and their use as angiogenesis inhibitors” (SmithKline Beecham Corporation, priority 2002, dated 2008)

Sequences of proteins named here, by UniProt entry; tags and fusion partners are left off. Residues count along the entry.
UniProt Q02763, 23-1124 limits assumed: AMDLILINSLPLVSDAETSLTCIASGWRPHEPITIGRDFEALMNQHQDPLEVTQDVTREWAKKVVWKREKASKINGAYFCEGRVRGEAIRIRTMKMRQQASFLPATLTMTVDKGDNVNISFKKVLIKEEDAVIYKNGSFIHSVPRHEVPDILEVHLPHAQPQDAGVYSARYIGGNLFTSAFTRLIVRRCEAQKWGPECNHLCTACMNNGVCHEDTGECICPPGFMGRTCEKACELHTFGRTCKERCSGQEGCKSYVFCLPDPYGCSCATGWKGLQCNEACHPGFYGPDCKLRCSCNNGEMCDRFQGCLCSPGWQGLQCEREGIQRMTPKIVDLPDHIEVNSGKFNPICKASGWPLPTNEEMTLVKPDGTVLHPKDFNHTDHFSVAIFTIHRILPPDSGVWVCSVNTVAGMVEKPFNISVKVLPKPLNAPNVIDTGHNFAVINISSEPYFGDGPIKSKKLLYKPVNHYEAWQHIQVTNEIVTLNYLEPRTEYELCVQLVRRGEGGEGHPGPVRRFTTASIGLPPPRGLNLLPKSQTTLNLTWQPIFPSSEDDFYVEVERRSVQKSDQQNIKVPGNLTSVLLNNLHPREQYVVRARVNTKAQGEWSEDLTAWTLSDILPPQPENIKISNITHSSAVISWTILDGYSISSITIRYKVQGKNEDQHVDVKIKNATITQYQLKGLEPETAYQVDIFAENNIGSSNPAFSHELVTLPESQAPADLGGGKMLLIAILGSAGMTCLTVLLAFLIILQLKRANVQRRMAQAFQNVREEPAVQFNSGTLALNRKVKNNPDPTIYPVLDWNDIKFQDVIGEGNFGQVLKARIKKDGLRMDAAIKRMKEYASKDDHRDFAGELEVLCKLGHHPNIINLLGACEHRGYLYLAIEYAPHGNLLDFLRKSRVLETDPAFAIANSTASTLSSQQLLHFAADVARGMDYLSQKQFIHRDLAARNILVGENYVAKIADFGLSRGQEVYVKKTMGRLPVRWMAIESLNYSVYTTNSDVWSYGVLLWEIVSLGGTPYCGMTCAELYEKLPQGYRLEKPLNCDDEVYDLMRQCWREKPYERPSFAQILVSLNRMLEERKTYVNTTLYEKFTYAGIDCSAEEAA
UniProt P35968, 786-1356 limits assumed: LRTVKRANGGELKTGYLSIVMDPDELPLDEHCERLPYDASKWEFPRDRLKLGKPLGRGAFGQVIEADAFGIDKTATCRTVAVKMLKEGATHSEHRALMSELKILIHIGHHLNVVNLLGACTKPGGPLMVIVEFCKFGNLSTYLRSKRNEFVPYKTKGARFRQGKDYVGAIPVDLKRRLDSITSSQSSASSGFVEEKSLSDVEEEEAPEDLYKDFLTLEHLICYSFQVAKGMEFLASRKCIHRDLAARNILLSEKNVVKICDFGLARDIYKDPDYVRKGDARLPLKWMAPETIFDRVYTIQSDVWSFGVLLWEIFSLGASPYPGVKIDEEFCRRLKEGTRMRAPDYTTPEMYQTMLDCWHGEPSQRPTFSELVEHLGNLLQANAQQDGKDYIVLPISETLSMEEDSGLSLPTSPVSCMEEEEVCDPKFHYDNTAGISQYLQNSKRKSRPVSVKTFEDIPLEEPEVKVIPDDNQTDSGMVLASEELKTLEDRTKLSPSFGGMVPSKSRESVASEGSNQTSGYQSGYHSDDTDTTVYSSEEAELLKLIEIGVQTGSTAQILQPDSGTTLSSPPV

Columns and labels:
[1] = target: Recombinant GST-Tie2 (Homo sapiens, UniProt Q02763); test: Tie2 fluorescence polarization kinase activity assay (TIE2-FP); conditions: activated Tie2, 200 μM ATP, peptide substrate; tested form: HCl
Procedure: Tie2 Fluorescence Polarization Kinase Activity Assay: (TIE2-FP)
Activation of Recombinant Tie2 Activation:
Recombinant GST-Tie2 was activated by incubating the enzyme in 20 mM Tris-HCl, pH 7.5, 12 mM MgCl2, 100 mM NaCl, 20 μM sodium vanidate, 1 mM DTT and 300 μM ATP at room temperature for 2 hours. The activation mixture was then passed through a NAP-25 desalting column (Pharmacia Biotech cat. no. 17-0852-02) to remove the free ATP. The activated enzyme was stored as aliquots at −80° C. in 20 mM Tris-HCl, pH 7.5 and 100 mM NaCl.
The final assay conditions were 50 mM HEPES, pH 7.5, 5% DMSO (when screening compounds), 200 μM ATP, 5 mM MgCl2, 1 mM DTT, 50 μM sodium vanidate, 1 nM activated enzyme, and 200 μM peptide. IC50's of compounds were measured under subsaturating ATP (200 μM) and varing concentrations of activated Tie2 and peptide substrate (RFWKYEFWR-OH; MW 1873 Da, TFA salt). Panvera Anti-phosphotyrosine antibody (Cat#P2840) and PTK Green Tracer (Cat#P2842) were used to detect the phosphorylated peptide. Polarization was measured on a TECAN Polarion in 138-second cycles for 30 minutes at room temperature. IC50's were then determined from the % polarization using normal calculation methods.

[2] = target: GST-VEGFR2 (Homo sapiens, UniProt P35968); test: VEGF-R2 enzyme assay (VEGF-E), LANCE method; conditions: GST-VEGFR2, 75 uM ATP, biotinylated peptide; tested form: HCl
Text: VEGF-R2 Enzyme Assay (VEGF-E)
The VEGF enzyme assay used the LANCE method (Wallac) and GST-VEGFR2, baculovirus expressed recombinant constructs of the intracellular domains of human TIE2 tagged by GST. The method measured the ability of the purified enzymes to catalyse the transfer of the γ-phosphate from ATP onto tyrosine residues in a biotinylated synthetic peptide, (biotin-aminohexyl-EEEEYFELVAKKKK-NH2). This peptide phosphorylation was detected using the following procedure: GST-VEGFR2 was incubated for 40-60 mins at room temperature with 75 uM ATP, 5 mM MgCl2, 0.1 mM DTT, 0.1 mg/mL BSA and the test compound (diluted from a 10 mM stock in DMSO for desired concentration) in 100 mM HEPES buffer. The reaction was stopped by the addition of EDTA (final concentration 50 mM). Streptavidin linked-APC (allophycocyanin, Molecular Probe) and Europium-labeled anti-phosphorylated tyrosine antibody (Wallac) were then added at the final concentration of 15 nM and 1 nM, respectively. The APC signal was measured using an ARVO multilabel counter (Wallac Berthold, Japan). The percent inhibition of activity was calculated relative to blank control wells. The concentration of test compound that inhibits 50% of activity (IC50) was interpolated using nonlinear regression (Levernberg-Marquardt) and the equation, y=Vmax (1−x/(K+x))+Y2, where “K” was equal to the IC50. […]

TIE2-FP [1]: + (+ = pIC50 of 5.0-6.0) | VEGF-E [2]: +++ (+++ = pIC50 of >7.0)
Structure (SMILES): CN(c1ccc2c(c1)nc(Nc1ccc(N3CCOCC3)cc1)n2C)c1ccnc(Nc2ccc(CS(C)(=O)=O)cc2)n1
